GIV Gai3 FP – blocks GIV peptide binding to rat Galpha-i3; Galpha-i3/FITC-GIV peptide fluorescence polarization, 90 min; stronger effect = lower value; scaled: aluminum fluoride 0%, vehicle 100%; P08753; hit rate 0.42% among 210,000; AID 1224905; percent of control (FP), % (test concentration not listed);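 active = replicate mean at 85% of control or lower, very high polarization wells dropped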;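 also: wells of about 15 µL received 100 nL stock; the first replicate is given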
HCMV UL50-53 inh – disrupts HCMV UL50-UL53 complex binding | AID 1918969 | HTRF UL50-UL53 interaction, normalized percent inhibition | 190,000 tested, 0.15% active | inhibition, % (test concentration not listed); in the data active = inhibition above about 27%, passing the limit was not always enough
The depositor's hits bear a star; / = no result given. In the library only some 0.46% were active in any assay of this set; here they are far more common.

COc1cc2cc3c4c(cc(OC)c(OC)c4c2cc1OC)CCN3C
  GIV Gai3 FP = /	HCMV UL50-53 inh = 67.4*

COc1cc2ccc3c(CCN(C)C)cc(OC)c(OC)c3c2cc1OC
  GIV Gai3 FP = 106.3	HCMV UL50-53 inh = /

Cc1noc(C)c1CSc1nc2ccccc2c(=O)n1C(C)C
  GIV Gai3 FP = /	HCMV UL50-53 inh = -8.8

CNc1nc(SCc2c(C)noc2C)nc2ccccc12
  GIV Gai3 FP = /	HCMV UL50-53 inh = 51.2*

O=C(NCc1cccc(Cl)c1)c1cccn1-c1cccnc1
  GIV Gai3 FP = 105.2	HCMV UL50-53 inh = -29.9

O=C(Cc1ccc(-n2c(=O)c3ccccc3n(CC(=O)NCc3ccco3)c2=O)cc1)NCC1CCCO1 (stereo unspecified)
  GIV Gai3 FP = 112.0	HCMV UL50-53 inh = 0.8

CCOC(=O)c1c2c3c(cccc3[nH]c1=O)C(=O)c1ccccc1-2
  GIV Gai3 FP = /	HCMV UL50-53 inh = -53.1

Cc1ccc2c3c(c(N)c(=O)[nH]c13)-c1ccccc1C2=O
  GIV Gai3 FP = 75.5*	HCMV UL50-53 inh = /

CCN(CC)c1ccc2cc(-c3nc4ccccc4s3)c(=O)oc2c1
  GIV Gai3 FP = 249.8	HCMV UL50-53 inh = 3.2

CCC(=O)Oc1ccc2cc(-c3nc4ccccc4n3C)c(=O)oc2c1
  GIV Gai3 FP = /	HCMV UL50-53 inh = -19.1

CCN(CC)c1ccc2cc(-c3nc(-c4ccc(Cl)cc4Cl)cs3)c(=O)oc2c1
  GIV Gai3 FP = -69.2*	HCMV UL50-53 inh = /

CCN(CC)c1ccc2cc(-c3nc4ccccc4n3C)c(=O)oc2c1
  GIV Gai3 FP = -24.2*	HCMV UL50-53 inh = -15.1

Cc1ccc(C(=O)N/C(=C\c2ccc3c(c2)OCO3)C(=O)Nc2ccccc2Br)cc1C
  GIV Gai3 FP = 110.5	HCMV UL50-53 inh = /

Cc1nnsc1C(=O)Nc1cccc(C(F)(F)F)c1
  GIV Gai3 FP = 101.2	HCMV UL50-53 inh = -5.5

CCN(CC)C(=O)Cn1c2cc(OC)c(OC)cc2c2nc3n(c(=O)c21)CCS3
  GIV Gai3 FP = 103.9	HCMV UL50-53 inh = -20.5

CN(C)c1ccc(/C=C(\C#N)C(N)=C(C#N)C#N)cc1
  GIV Gai3 FP = -23.8*	HCMV UL50-53 inh = /

CN(C)c1ccc(/C=C(\C#N)C(N)=O)cc1
  GIV Gai3 FP = /	HCMV UL50-53 inh = -117.9

CN(C)c1ccc(/C=C(\C#N)c2nc3ccccc3c(=O)[nH]2)cc1
  GIV Gai3 FP = 254.1	HCMV UL50-53 inh = -42.9

CN(C)c1ccc(/C=C(/C#N)c2ccc(C#N)cc2)cc1
  GIV Gai3 FP = 11.1*	HCMV UL50-53 inh = -10.3

Cc1c(NC(=O)c2cc(-c3cccnc3)n[nH]2)c(=O)n(-c2ccccc2)n1C
  GIV Gai3 FP = 104.0	HCMV UL50-53 inh = 13.7

CCOC(=O)C1CCN(CC(=O)Nc2ccc(C(F)(F)F)cc2Cl)CC1
  GIV Gai3 FP = 99.2	HCMV UL50-53 inh = -4.1

COc1cc(/C=C(\C#N)C(=O)C(C)(C)C)ccc1O
  GIV Gai3 FP = /	HCMV UL50-53 inh = -73.3

COc1cc(/C=C(\C#N)C(=O)c2ccc(O)c(O)c2)cc(I)c1O
  GIV Gai3 FP = -30.6*	HCMV UL50-53 inh = -121.5

CC(=O)Oc1ccc(/C=C2\N=C(c3cc([N+](=O)[O-])ccc3Cl)OC2=O)c(OC(C)=O)c1
  GIV Gai3 FP = 106.2	HCMV UL50-53 inh = -19.5

N#Cc1nc2c(nc1C#N)-c1ccccc1C2=O
  GIV Gai3 FP = 89.8	HCMV UL50-53 inh = -5.0

O=C1c2ccccc2-c2nc3nnnn3nc21
  GIV Gai3 FP = /	HCMV UL50-53 inh = 102.6*

O=C1C2=C(NC3=C(C(=O)c4ccccc43)C23C(=O)Nc2ccccc23)c2ccccc21
  GIV Gai3 FP = 106.7	HCMV UL50-53 inh = -10.4

CC1(C)C(=O)NC2=C1C(=O)C(=O)c1ccccc12
  GIV Gai3 FP = /	HCMV UL50-53 inh = 107.3*

O=C(CCSCc1cnn(-c2ccccc2)c1-n1cccc1)NCc1cccs1
  GIV Gai3 FP = 102.0	HCMV UL50-53 inh = /

CCCSc1nc2cc(C)c(C)cc2n1CC(O)CO (stereo unspecified)
  GIV Gai3 FP = /	HCMV UL50-53 inh = -29.9

Cc1cc(C)c2cc3c(cc2n1)CCN3CC(O)CO (stereo unspecified)
  GIV Gai3 FP = -26.4*	HCMV UL50-53 inh = -53.1

O=C(Nc1ccc2c(c1)OCCO2)N1CCN(C(=O)c2nsc3ccccc23)CC1
  GIV Gai3 FP = 99.2	HCMV UL50-53 inh = /

Cc1ccccc1-n1nc2c(c1NC(=O)c1ccc(S(=O)(=O)N3CCCCC3)cc1)CSC2
  GIV Gai3 FP = 104.4	HCMV UL50-53 inh = 39.7*

Cc1ccc(-n2nc3c(c2NC(=O)c2ccc(S(=O)(=O)N4CCOCC4)cc2)CSC3)c(C)c1
  GIV Gai3 FP = 108.8	HCMV UL50-53 inh = 90.3*

COc1ccc(-n2nc3c(c2NC(=O)c2ccc(S(=O)(=O)N4CCCCC4)cc2)CSC3)cc1
  GIV Gai3 FP = 102.4	HCMV UL50-53 inh = 31.6

Cc1ccc(-n2nc3c(c2NC(=O)c2ccc(S(=O)(=O)N4CCCCC4)cc2)CSC3)c(C)c1
  GIV Gai3 FP = 102.8	HCMV UL50-53 inh = 6.1

Cc1cccc(-n2nc3c(c2NC(=O)c2ccc(S(=O)(=O)N4CCCCC4)cc2)CSC3)c1C
  GIV Gai3 FP = 108.8	HCMV UL50-53 inh = /

COc1ccc(-n2nc3c(c2NC(=O)c2ccc(S(=O)(=O)N4CCCC4)cc2)CSC3)cc1
  GIV Gai3 FP = 103.8	HCMV UL50-53 inh = 58.3*

COc1ccc(CN2CCN(c3ncnc4sccc34)CC2=O)cc1
  GIV Gai3 FP = /	HCMV UL50-53 inh = 38.8

COC(=O)C1=CN(Cc2ccc(Cl)cc2)C=C(C(=O)OC)C1c1cc(Br)c(OC)c(OC)c1
  GIV Gai3 FP = 106.5	HCMV UL50-53 inh = /

CC(C)CC(C(=O)O)N1C(=O)C2C3C=CC(C3)C2C1=O (stereo unspecified)
  GIV Gai3 FP = /	HCMV UL50-53 inh = -7.3

COc1ccc(/C=c2/[nH]/c(=C/C(=O)c3ccccc3)c(=O)[nH]c2=O)cc1OC
  GIV Gai3 FP = /	HCMV UL50-53 inh = -27.7

COc1ccc(-c2ccc(CNCc3ccco3)o2)cc1Cl
  GIV Gai3 FP = 107.9	HCMV UL50-53 inh = -28.0

COC(=O)c1cnc(NN2C(=O)C=C(C)C2=O)nc1C(F)(F)F
  GIV Gai3 FP = 101.1	HCMV UL50-53 inh = -26.3

O=C(O)c1cc(N2CCN(c3ccccc3F)CC2)ccc1NC(=O)C1CCC1
  GIV Gai3 FP = 98.0	HCMV UL50-53 inh = -10.8

The closing 2 compounds of the section before open the next one.
COC(=O)c1cnc(NN2C(=O)C=C(C)C2=O)nc1C(F)(F)F
  GIV Gai3 FP = 101.1	HCMV UL50-53 inh = -26.3

O=C(O)c1cc(N2CCN(c3ccccc3F)CC2)ccc1NC(=O)C1CCC1
  GIV Gai3 FP = 98.0	HCMV UL50-53 inh = -10.8

COc1cc(NC(=O)N2CCN(c3cc(N4CCOCC4)nc(C)n3)CC2)cc(OC)c1
  GIV Gai3 FP = 105.3	HCMV UL50-53 inh = 5.1

C=CCn1cnnc1SCc1cc(F)ccc1OC
  GIV Gai3 FP = /	HCMV UL50-53 inh = -5.5

CCC(C)NC(=O)C1CCN(Cc2nc(-c3ccc(OC)c(OC)c3)no2)CC1 (stereo unspecified)
  GIV Gai3 FP = 106.4	HCMV UL50-53 inh = -30.1

O=C(Oc1ccccc1OC(=O)c1ccccc1)c1ccccc1
  GIV Gai3 FP = 100.5	HCMV UL50-53 inh = /

O=C(Oc1cccc2c1C(=O)C=CC2=O)c1ccccc1
  GIV Gai3 FP = 104.1	HCMV UL50-53 inh = 65.1*

CCCCn1c(SC(C)C(N)=O)nc2cc(S(N)(=O)=O)ccc21 (stereo unspecified)
  GIV Gai3 FP = /	HCMV UL50-53 inh = -28.0

COCCCN1C(=O)/C(=C/c2c(N3CCN(CCO)CC3)nc3ccccn3c2=O)SC1=S
  GIV Gai3 FP = 23.2*	HCMV UL50-53 inh = /

Cc1cccn2c(=O)c(/C=C3\SC(=S)N(CC4CCCO4)C3=O)c(N3CCN(C)CC3)nc12 (stereo unspecified)
  GIV Gai3 FP = -29.6*	HCMV UL50-53 inh = -81.9

Cc1cccn2c(=O)c(/C=C3\SC(=S)N(Cc4ccccc4)C3=O)c(N3CCN(C)CC3)nc12
  GIV Gai3 FP = 121.5	HCMV UL50-53 inh = -12.7

CCN1CCN(c2nc3ccccn3c(=O)c2/C=C2\SC(=S)N(CC)C2=O)CC1
  GIV Gai3 FP = 288.7	HCMV UL50-53 inh = -60.7

O=C1/C(=C\c2c(N3CCN(CCO)CC3)nc3ccccn3c2=O)SC(=S)N1CC1CCCO1 (stereo unspecified)
  GIV Gai3 FP = 25.1*	HCMV UL50-53 inh = /

COCCN1C(=O)/C(=C/c2c(N3CCN(CCO)CC3)nc3ccccn3c2=O)SC1=S
  GIV Gai3 FP = -29.1*	HCMV UL50-53 inh = -97.3

CC1CCN(c2nc3ccccn3c(=O)c2/C=C2/SC(=S)N(CC3CCCO3)C2=O)CC1 (stereo unspecified)
  GIV Gai3 FP = 159.7	HCMV UL50-53 inh = /

CC(c1ccccc1)N1C(=O)/C(=C\c2c(N3CCN(CCO)CC3)nc3ccccn3c2=O)SC1=S (stereo unspecified)
  GIV Gai3 FP = 170.0	HCMV UL50-53 inh = /

CCOC(=O)c1cc(C)sc1N1C(=O)C=CC1=O
  GIV Gai3 FP = /	HCMV UL50-53 inh = 4.3

Another view of some results above.
| mol | GIV Gai3 FP | HCMV UL50-53 inh |
| --- | --- | --- |
| Cc1noc(C)c1CSc1nc2ccccc2c(=O)n1C(C)C | / | -8.8 |
| CNc1nc(SCc2c(C)noc2C)nc2ccccc12 | / | 51.2* |

Next part
CCC(=O)N1CCc2cc(Br)cc(S(=O)(=O)N(CC)CCN(C)C)c21
  GIV Gai3 FP = 101.3	HCMV UL50-53 inh = 3.1

CCCCCn1c(=O)[nH]c2cc(C(=O)N3CCC(Cc4ccccc4)CC3)ccc2c1=O
  GIV Gai3 FP = 102.6	HCMV UL50-53 inh = -23.4

COc1ccccc1CNC(=O)c1cc2cc(C)ccc2n1C
  GIV Gai3 FP = 97.1	HCMV UL50-53 inh = -41.0

Cc1nc2cc(CC(=O)O)ccc2s1
  GIV Gai3 FP = /	HCMV UL50-53 inh = 7.8

N#CC(C#N)C(C#N)(C#N)C1CCCC1=O (stereo unspecified)
  GIV Gai3 FP = 68.3*	HCMV UL50-53 inh = -4.2

O=C1Nc2ccccc2/C1=C/c1ccccc1
  GIV Gai3 FP = 109.2	HCMV UL50-53 inh = /

O=C1/C(=C/c2ccccc2)Nc2ccccc21
  GIV Gai3 FP = -102.2*	HCMV UL50-53 inh = -72.5

COc1c(C)cnc(Cn2c(SCC(=O)Nc3ccc(F)cc3)nc3ccccc32)c1C
  GIV Gai3 FP = 101.0	HCMV UL50-53 inh = 4.0

COc1ccc(NC(=O)CSc2nc3c(cc2C#N)CCCC3)cc1
  GIV Gai3 FP = 103.4	HCMV UL50-53 inh = /

Cc1cc(C)nc(NS(=O)(=O)c2ccc(NC(=O)CSc3nc4c(cc3C#N)CCCCC4)cc2)n1
  GIV Gai3 FP = 101.7	HCMV UL50-53 inh = 27.9*

c1cc2c(cc1CNC1=NCCC1)OCO2
  GIV Gai3 FP = /	HCMV UL50-53 inh = -20.2

O=C(Cn1cnc2c(sc3ncccc32)c1=O)Nc1ccc(F)c(F)c1
  GIV Gai3 FP = 103.9	HCMV UL50-53 inh = /

High-throughput results from PubChem BioAssay.
